# Measured values from ChEMBL document CHEMBL4428025 (J Med Chem, 2016).
# What was measured:
# Nociceptin receptor [1] = molecular target: T1, Nociceptin receptor (Homo sapiens, UniProt P41146); test: Displacement of [3H]nociceptin from recombinant human nociceptin opioid receptor expressed in CHO cell membranes after 60 mins by scintillation counting method
# Mu-type opioid receptor [2] = molecular target: T2, Mu-type opioid receptor (Homo sapiens, UniProt P35372); test: Displacement of [3H]DAMGO from recombinant human mu opioid receptor expressed in CHO cell membranes after 60 mins by scintillation counting method
# Nociceptin receptor [3] = molecular target: T1, Nociceptin receptor; test: Antagonist activity at human nociceptin opioid receptor expressed in CHO cell membranes after 2.5 hrs by GTPgamma(35)S binding assay
# Nociceptin receptor [4] = molecular target: T1, Nociceptin receptor; test: Agonist activity at human nociceptin opioid receptor expressed in HEK293 cell membranes by GTPgamma(35)S binding assay
# Nociceptin receptor [5] = molecular target: T1, Nociceptin receptor; test: Displacement of [3H]nociceptin/orphanin FQ from recombinant human nociceptin opioid receptor expressed in HEK293 cell membranes after 60 mins
# Mu-type opioid receptor [6] = molecular target: T2, Mu-type opioid receptor; test: Displacement of [3H]DAMGO from recombinant human mu opioid receptor expressed in CHO cell membranes after 60 mins
# Nociceptin receptor [7] = molecular target: T1, Nociceptin receptor; test: Displacement of [125I][Tyr14]nociceptin/orphanin FQ from human nociceptin opioid receptor expressed in CHO cell membranes after 1 hr by microplate scintillation counting method
# Nociceptin receptor [8] = molecular target: T1, Nociceptin receptor; test: Displacement of [3H]nociceptin/orphanin FQ from recombinant human nociceptin opioid receptor expressed in CHO cell membranes
# Mu-type opioid receptor [9] = molecular target: T2, Mu-type opioid receptor; test: Displacement of [3H]DAMGO from recombinant human mu opioid receptor expressed in CHO cell membranes
# Nociceptin receptor [10] = molecular target: T1, Nociceptin receptor; test: Agonist activity at human nociceptin opioid receptor expressed in CHO cell membranes after 60 mins by GTPgamma(35)S binding assay
structure (smiles),measurement,setting,value
CCn1c(=O)n([C@@H]2CCN(C3CCCCCCC3)C[C@H]2CO)c2ccccc21,Ki,Nociceptin receptor [1],2 nM
same,Ki,Mu-type opioid receptor [2],31 nM
same,IC50,Nociceptin receptor [3],5.3 nM
CNC(=O)Cn1c(=O)n(C2CCN([C@H]3Cc4cccc5cccc3c45)CC2)c2ccccc21,EC50,Nociceptin receptor [4],0.3 nM
same,Ki,Nociceptin receptor [5],0.21 nM
same,Ki,Mu-type opioid receptor [6],35 nM
O=c1n(CC[18F])c2ccccc2n1[C@H]1CCN(C[C@H]2CCCCC23CC3)C[C@@H]1CO,IC50,Nociceptin receptor [7],0.63 nM
O=C1Cc2ccccc2N1C1CCN([C@@H]2CC[C@H]3CCCc4cccc2c43)CC1,Ki,Nociceptin receptor [8],11 nM
same,Ki,Mu-type opioid receptor [9],80 nM
same,EC50,Nociceptin receptor [10],46 nM
